US4146721A, “Pyrazol-4-acetic acid compounds” (priority 1970, dated 1979)

How the values were obtained:
[1] = test system: Carrageenin edema of the rear paw of the rat; experiment: Carrageenin edema of the rear paw (antiphlogistic effect); type: in vivo; conditions: Phenylbutazon = 1.0, oral
in vivo = conditions: mouse, ip
[2] = test system: ultraviolet erythema of the skin on the back of the guinea pig; experiment: Ultraviolet erythema of the skin on the back (antiphlogistic effect); type: in vivo; conditions: Phenylbutazon = 1.0, oral

O=C(O)Cc1cn(-c2ccccc2)nc1-c1ccc(Cl)cc1 [D, 1-phenyl-3-(p-chlorophenyl)-pyrazol-4-acetic acid]
Retardation of the Carrageenin Edema, Relative Effect [1]: 12.0 | LD50 at 72 h (in vivo): 340 mg/kg | Retardation of the UV-Erythema, Relative Effect [2]: 5.3
